{
  "source": "PubChem BioAssay AID824",
  "about": "(SRMLSC, 2007)",
  "note": "Only a part is listed here, and it is no random draw. Inconclusive results are not listed. Active and inactive are the calls of the source.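 Rule for the calls: active = viability at or below 27.92% in each of two runs, the all-compound median minus 4 SD; inconclusive = no clear call, values can overlap the other calls; inactive = the rest.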",
  "data": [
    {"assay": "viability of PTEN-null HCT116 cells – cell-based, HCT116 clonal line, CellTiter-Glo, pilot screen (AID 824);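 note: 0% = 20 µM Hyamine control and 100% = vehicle cell control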", "details": "HCT116 PTEN-deleted viability, 60 h, at 10 µM, hits give low values", "values": [
      {"molecule": "Cc1ccc(NP(C)(=O)Oc2ccccc2)c(C)c1", "note": "(stereo not given)", "viability": "inactive: 101%"},
      {"molecule": "CP(=O)(NC(=O)Nc1ccccc1)Oc1ccccc1", "note": "(stereo not given)", "viability": "inactive: 92.7%"},
      {"molecule": "Cc1ccc(C)c(NP(C)(=O)Oc2ccccc2)c1", "note": "(stereo not given)", "viability": "inactive: 94.4%"},
      {"molecule": "CP(=O)(Nc1ccc2c(c1)OCCO2)Oc1ccccc1", "note": "(stereo not given)", "viability": "inactive: 100%"},
      {"molecule": "CP(=O)(Oc1ccccc1)N1CCOC1=O", "note": "(stereo not given)", "viability": "inactive: 96.8%"}
    ]}
  ]
}
